# From article doi:10.1101/2021.05.05.442822
# Read-outs that look alike come from different tables or passages of the source.
# Assays:
# Test in all cases: FP
# [1] = molecular target: unmethylated (H3K9me0) mononucleosome (UniProt P84233)
# [2] = molecular target: H3K9me2 dimethylated mononucleosome (UniProt P84233); conditions: complex
# [3] = molecular target: H3K9me1 monomethylated mononucleosome (UniProt P84233); conditions: complex
Kd ([1]; complex),Kd [2],Kd [3],Kd [1],Substance
7.42 µM,18.4 µM,–,–,G9a ANK-SET homodimer (from UniProt Q96KQ7)
–,–,5 µM,–,GLP ANK-SET homodimer (from UniProt Q9H9B1)
–,–,–,> 70 µM,G9aS-GLP
6.5 µM,4.76 µM,2.26 µM,–,"G9a-GLP ANK-SET heterodimer, tagless (from UniProt Q96KQ7)"
